Reference: PMC9569420 (Communications Biology, 2022)
Where “and” joins values, the source holds several entries; their conditions need not be identical. Equal entries are not always repeated.

Sequences of proteins named here, by UniProt entry; tags and fusion partners are left off. A change or cut given only in a name is not applied to a line headed by its entry.
UniProt Q06187: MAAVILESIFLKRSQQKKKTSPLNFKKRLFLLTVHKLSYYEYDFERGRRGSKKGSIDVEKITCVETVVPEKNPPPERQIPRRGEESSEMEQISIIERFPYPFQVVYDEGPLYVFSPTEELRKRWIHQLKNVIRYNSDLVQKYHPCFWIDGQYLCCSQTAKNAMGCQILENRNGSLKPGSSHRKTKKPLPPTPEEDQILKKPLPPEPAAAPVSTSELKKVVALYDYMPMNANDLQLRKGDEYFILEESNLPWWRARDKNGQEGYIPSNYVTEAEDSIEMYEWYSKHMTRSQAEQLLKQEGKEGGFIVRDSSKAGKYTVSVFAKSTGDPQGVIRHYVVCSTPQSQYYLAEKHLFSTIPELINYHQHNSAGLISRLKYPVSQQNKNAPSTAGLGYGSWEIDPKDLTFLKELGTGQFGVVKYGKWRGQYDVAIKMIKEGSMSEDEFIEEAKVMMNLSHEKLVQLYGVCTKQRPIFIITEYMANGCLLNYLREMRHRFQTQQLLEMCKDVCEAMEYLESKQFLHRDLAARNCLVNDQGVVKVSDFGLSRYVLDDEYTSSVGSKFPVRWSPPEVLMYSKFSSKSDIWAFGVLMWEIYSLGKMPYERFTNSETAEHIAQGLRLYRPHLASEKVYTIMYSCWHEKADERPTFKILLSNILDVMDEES
UniProt Q86Z02: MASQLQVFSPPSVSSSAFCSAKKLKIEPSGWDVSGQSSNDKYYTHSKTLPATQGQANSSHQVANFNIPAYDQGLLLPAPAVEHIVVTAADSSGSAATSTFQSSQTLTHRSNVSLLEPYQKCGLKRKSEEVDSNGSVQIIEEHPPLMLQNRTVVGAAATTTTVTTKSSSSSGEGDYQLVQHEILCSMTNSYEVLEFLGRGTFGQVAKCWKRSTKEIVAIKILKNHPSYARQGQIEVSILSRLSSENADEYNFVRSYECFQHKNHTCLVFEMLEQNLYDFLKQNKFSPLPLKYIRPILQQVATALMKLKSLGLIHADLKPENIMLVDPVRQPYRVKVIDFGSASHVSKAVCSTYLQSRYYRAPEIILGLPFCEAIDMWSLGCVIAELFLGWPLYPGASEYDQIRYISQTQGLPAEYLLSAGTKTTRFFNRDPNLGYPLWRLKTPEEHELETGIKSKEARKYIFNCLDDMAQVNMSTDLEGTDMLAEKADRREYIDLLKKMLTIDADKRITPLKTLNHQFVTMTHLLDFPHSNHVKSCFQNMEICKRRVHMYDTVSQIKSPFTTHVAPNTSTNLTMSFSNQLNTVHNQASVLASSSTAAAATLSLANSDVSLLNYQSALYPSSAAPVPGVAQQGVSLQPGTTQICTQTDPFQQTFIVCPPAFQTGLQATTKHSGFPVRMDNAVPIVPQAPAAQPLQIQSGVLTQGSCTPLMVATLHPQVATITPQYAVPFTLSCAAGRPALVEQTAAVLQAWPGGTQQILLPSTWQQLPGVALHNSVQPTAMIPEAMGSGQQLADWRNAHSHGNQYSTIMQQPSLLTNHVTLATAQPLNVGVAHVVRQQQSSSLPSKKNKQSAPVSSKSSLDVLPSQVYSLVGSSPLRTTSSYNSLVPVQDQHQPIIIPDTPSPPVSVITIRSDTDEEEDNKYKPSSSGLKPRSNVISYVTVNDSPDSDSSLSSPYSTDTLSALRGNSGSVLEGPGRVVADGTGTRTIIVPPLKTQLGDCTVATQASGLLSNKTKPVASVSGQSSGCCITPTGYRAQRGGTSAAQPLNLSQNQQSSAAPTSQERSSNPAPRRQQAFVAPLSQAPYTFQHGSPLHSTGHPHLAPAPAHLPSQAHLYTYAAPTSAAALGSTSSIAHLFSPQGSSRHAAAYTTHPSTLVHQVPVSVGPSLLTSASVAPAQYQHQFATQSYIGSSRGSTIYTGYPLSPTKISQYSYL
UniProt O14757: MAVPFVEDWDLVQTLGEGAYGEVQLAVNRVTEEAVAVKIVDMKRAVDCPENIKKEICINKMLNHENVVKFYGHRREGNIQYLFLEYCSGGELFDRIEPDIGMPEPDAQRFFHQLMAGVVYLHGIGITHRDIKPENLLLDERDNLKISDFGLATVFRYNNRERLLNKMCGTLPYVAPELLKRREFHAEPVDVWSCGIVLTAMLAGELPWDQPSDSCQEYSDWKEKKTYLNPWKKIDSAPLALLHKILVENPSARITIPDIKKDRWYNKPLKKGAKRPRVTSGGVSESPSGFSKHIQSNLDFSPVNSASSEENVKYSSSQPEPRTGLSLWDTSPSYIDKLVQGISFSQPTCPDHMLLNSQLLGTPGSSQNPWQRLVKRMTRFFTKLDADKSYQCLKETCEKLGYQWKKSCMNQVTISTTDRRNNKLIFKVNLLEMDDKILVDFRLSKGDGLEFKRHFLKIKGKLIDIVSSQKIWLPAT
UniProt O00311: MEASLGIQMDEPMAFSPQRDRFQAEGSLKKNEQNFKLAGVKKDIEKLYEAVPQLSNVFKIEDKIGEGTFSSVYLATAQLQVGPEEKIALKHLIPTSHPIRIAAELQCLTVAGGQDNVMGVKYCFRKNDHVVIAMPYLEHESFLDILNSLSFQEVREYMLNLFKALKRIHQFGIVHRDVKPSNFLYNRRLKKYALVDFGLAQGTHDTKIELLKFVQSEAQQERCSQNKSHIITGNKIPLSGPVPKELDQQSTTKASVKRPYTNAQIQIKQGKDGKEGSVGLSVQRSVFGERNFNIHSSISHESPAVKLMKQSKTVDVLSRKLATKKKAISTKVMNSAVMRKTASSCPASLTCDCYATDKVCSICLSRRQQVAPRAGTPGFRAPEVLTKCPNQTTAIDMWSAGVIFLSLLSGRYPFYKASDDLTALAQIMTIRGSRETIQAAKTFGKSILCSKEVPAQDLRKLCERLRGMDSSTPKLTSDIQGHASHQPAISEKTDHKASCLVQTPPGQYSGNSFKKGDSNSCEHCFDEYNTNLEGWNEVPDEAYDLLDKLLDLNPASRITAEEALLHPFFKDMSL
UniProt Q96RR4, whole entry: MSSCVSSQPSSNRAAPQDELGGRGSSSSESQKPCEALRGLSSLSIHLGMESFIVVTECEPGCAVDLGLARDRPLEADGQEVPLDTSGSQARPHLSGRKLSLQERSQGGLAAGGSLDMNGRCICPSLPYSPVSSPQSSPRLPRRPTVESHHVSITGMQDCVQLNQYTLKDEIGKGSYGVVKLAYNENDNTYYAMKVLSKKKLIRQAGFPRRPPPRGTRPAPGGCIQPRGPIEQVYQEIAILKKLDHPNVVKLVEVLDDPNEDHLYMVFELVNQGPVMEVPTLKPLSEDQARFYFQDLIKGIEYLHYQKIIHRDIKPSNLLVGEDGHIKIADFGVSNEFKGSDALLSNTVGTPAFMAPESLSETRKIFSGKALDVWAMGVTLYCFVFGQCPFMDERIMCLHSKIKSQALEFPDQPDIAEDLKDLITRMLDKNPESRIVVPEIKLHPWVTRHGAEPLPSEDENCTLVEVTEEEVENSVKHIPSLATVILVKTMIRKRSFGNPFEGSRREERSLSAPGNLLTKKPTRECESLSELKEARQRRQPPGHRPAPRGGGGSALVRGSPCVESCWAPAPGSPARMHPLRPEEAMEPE
UniProt Q5TCX8: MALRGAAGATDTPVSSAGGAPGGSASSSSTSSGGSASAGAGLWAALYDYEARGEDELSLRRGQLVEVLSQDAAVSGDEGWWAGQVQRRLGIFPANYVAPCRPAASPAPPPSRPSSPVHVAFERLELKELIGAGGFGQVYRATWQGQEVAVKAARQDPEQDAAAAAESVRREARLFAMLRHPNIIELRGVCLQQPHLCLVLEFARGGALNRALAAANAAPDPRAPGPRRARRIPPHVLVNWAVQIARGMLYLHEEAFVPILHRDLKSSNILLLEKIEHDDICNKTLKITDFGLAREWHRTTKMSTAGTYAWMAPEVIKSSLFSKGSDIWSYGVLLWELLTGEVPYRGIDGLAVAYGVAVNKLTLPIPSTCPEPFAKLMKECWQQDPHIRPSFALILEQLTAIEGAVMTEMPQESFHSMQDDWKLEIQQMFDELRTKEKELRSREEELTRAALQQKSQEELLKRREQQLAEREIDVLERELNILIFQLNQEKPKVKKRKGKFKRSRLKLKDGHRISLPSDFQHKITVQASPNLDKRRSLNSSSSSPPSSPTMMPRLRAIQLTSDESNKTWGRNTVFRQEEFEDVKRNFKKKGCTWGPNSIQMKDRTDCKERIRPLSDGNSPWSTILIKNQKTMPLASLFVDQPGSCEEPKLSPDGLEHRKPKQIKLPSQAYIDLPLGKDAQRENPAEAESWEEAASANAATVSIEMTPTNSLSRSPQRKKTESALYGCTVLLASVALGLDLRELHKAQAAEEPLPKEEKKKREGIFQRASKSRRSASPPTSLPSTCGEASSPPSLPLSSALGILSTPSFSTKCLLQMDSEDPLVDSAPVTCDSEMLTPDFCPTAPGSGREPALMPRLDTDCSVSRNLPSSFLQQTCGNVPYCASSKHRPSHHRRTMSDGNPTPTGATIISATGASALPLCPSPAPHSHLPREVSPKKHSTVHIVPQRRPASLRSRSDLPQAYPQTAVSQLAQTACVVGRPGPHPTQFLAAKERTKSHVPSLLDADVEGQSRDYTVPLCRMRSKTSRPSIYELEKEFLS
UniProt P78368: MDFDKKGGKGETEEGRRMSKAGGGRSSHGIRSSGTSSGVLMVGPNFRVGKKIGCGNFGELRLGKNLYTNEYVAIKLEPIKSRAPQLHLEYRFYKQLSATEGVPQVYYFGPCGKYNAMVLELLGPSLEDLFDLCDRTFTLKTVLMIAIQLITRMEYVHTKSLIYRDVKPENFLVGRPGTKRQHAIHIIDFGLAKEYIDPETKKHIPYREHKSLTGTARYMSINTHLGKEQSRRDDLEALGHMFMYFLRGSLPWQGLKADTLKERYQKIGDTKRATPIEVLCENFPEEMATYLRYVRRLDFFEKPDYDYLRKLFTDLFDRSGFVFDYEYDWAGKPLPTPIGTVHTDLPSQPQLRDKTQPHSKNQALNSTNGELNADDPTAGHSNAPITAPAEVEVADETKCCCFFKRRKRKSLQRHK
UniProt Q9Y463, whole entry: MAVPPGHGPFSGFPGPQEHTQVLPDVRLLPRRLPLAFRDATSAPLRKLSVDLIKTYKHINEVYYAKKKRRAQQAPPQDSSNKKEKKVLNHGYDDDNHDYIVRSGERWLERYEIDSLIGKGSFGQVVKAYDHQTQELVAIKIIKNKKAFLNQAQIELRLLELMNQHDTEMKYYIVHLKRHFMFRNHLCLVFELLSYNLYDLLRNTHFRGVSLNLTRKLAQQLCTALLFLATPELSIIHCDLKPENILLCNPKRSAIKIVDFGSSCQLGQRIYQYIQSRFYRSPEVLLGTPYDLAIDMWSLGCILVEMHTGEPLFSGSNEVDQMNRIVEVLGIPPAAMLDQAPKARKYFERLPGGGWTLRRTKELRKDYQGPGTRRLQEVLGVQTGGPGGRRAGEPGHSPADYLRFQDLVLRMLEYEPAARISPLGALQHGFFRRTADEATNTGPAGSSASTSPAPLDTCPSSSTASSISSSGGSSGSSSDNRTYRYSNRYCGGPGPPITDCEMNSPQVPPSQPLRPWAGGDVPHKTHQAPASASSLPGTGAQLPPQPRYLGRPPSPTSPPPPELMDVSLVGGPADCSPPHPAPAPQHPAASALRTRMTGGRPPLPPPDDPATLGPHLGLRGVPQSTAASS
UniProt Q16513: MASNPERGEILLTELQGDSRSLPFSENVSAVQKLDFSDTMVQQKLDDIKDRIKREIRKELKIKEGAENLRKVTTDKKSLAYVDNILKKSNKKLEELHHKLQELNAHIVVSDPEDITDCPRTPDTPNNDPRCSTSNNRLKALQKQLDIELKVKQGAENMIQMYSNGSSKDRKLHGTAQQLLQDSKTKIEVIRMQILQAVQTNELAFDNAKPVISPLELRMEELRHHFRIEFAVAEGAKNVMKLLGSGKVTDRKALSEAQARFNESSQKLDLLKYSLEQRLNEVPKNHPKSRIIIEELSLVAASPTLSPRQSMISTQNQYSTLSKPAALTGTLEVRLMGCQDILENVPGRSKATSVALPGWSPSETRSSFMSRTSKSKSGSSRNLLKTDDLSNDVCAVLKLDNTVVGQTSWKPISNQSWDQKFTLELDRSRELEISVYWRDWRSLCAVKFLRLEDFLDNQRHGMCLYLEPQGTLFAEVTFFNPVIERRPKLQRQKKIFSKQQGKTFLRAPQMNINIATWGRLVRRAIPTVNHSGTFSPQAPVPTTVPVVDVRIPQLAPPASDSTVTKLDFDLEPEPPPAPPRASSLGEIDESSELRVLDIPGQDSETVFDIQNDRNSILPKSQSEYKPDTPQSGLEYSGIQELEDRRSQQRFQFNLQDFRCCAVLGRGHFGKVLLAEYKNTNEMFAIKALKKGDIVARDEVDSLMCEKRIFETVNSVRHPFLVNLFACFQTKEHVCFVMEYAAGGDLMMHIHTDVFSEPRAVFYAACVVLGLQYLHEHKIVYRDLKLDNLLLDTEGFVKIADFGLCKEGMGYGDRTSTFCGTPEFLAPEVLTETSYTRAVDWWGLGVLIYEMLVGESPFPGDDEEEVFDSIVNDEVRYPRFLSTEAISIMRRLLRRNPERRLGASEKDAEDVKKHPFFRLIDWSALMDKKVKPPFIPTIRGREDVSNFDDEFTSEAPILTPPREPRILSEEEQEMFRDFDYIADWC

Assays:
BTK = molecular target: T1, BTK (Homo sapiens, UniProt Q06187); experiment: HotSpot kinase assay; format: biochemical; conditions: 10µM
T1 construct: purchased Reaction Biology Corporation

HIPK1 = molecular target: T2, HIPK1 (Homo sapiens, UniProt Q86Z02); experiment: HotSpot kinase assay; format: biochemical; conditions: 10µM
T2 construct: purchased Reaction Biology Corporation

PKN1/PRK1 = molecular target: T3, PKN1/PRK1 (Homo sapiens, UniProt Q16512); experiment: HotSpot kinase assay; format: biochemical; conditions: 10µM
T3 construct: purchased Reaction Biology Corporation

MKK4 = molecular target: T4, MKK4 (Homo sapiens, UniProt P45985); experiment: HotSpot kinase assay; format: biochemical; conditions: 10µM
T4 construct: purchased Reaction Biology Corporation

AMPK(A2/B1/G1) = molecular target: T5, AMPK(A2/B1/G1) (Homo sapiens, UniProt P54646); experiment: HotSpot kinase assay; format: biochemical; conditions: 10µM
T5 construct: purchased Reaction Biology Corporation

JNK2 = molecular target: T6, JNK2 (Homo sapiens, UniProt P45984); experiment: HotSpot kinase assay; format: biochemical; conditions: 10µM
T6 construct: purchased Reaction Biology Corporation

TGFBR2 = molecular target: T7, TGFBR2 (Homo sapiens, UniProt P37173); experiment: HotSpot kinase assay; format: biochemical; conditions: 10µM
T7 construct: purchased Reaction Biology Corporation

MLK2/MAP3K10 = molecular target: T8, MLK2/MAP3K10 (Homo sapiens, UniProt Q02779); experiment: HotSpot kinase assay; format: biochemical; conditions: 10µM
T8 construct: purchased Reaction Biology Corporation

CHK1 = molecular target: T9, CHK1 (Homo sapiens, UniProt O14757); experiment: HotSpot kinase assay; format: biochemical; conditions: 10µM
T9 construct: purchased Reaction Biology Corporation

AMPK (A2/B1/G2) = molecular target: T10, AMPK (A2/B1/G2) (Homo sapiens, UniProt P54646); experiment: HotSpot kinase assay; format: biochemical; conditions: 10µM
T10 construct: purchased Reaction Biology Corporation

BRAF = molecular target: T11, BRAF (Homo sapiens, UniProt P15056); experiment: HotSpot kinase assay; format: biochemical; conditions: 10µM
T11 construct: purchased Reaction Biology Corporation

JAK2 = molecular target: T12, JAK2 (Homo sapiens, UniProt O60674); experiment: HotSpot kinase assay; format: biochemical; conditions: 10µM
T12 construct: purchased Reaction Biology Corporation

PBK/TOPK = molecular target: T13, PBK/TOPK (Homo sapiens, UniProt Q96KB5); experiment: HotSpot kinase assay; format: biochemical; conditions: 10µM
T13 construct: purchased Reaction Biology Corporation

CDK9/cyclin K = CDK9/cyclin K (Homo sapiens, UniProt P50750); experiment: biochemical; conditions: read-out: % Enzyme Activity (relative to DMSO controls), 10µM
CDK4/cyclin D3 = molecular target: T14, CDK4/cyclin D3 (Homo sapiens, UniProt P11802); experiment: HotSpot kinase assay; format: biochemical; conditions: 10µM
T14 construct: purchased Reaction Biology Corporation

CDC7/DBF4 = molecular target: T15, CDC7/DBF4 (Homo sapiens, UniProt O00311); experiment: HotSpot kinase assay; format: biochemical; conditions: 10µM
T15 construct: purchased Reaction Biology Corporation

SGK3/SGKL = molecular target: T16, SGK3/SGKL (Homo sapiens, UniProt Q96BR1); experiment: HotSpot kinase assay; format: biochemical; conditions: 10µM
T16 construct: purchased Reaction Biology Corporation

NEK7 = molecular target: T17, NEK7 (Homo sapiens, UniProt Q8TDX7); experiment: HotSpot kinase assay; format: biochemical; conditions: 10µM
T17 construct: purchased Reaction Biology Corporation

PKCepsilon = molecular target: T18, PKCepsilon (Homo sapiens, UniProt Q02156); experiment: HotSpot kinase assay; format: biochemical; conditions: 10µM
T18 construct: purchased Reaction Biology Corporation

CAMKK2 = molecular target: T19, CAMKK2 (Homo sapiens, UniProt Q96RR4); experiment: HotSpot kinase assay; format: biochemical; conditions: 10µM
T19 construct: purchased Reaction Biology Corporation

MLK4 = molecular target: T20, MLK4 (Homo sapiens, UniProt Q5TCX8); experiment: HotSpot kinase assay; format: biochemical; conditions: 10µM
T20 construct: purchased Reaction Biology Corporation

DAPK2 = molecular target: T21, DAPK2 (Homo sapiens, UniProt Q9UIK4); experiment: HotSpot kinase assay; format: biochemical; conditions: 10µM
T21 construct: purchased Reaction Biology Corporation

DDR2 = molecular target: T22, DDR2 (Homo sapiens, UniProt Q16832); experiment: HotSpot kinase assay; format: biochemical; conditions: 10µM
T22 construct: purchased Reaction Biology Corporation

CAMK2d = molecular target: T23, CAMK2d (Homo sapiens, UniProt Q13557); experiment: HotSpot kinase assay; format: biochemical; conditions: 10µM
T23 construct: purchased Reaction Biology Corporation

CK1g2 = molecular target: T24, CK1g2 (Homo sapiens, UniProt P78368); experiment: HotSpot kinase assay; format: biochemical; conditions: 10µM
T24 construct: purchased Reaction Biology Corporation

CK2a2 = molecular target: T25, CK2a2 (Homo sapiens, UniProt P19784); experiment: HotSpot kinase assay; format: biochemical; conditions: 10µM
T25 construct: purchased Reaction Biology Corporation

STK32B/YANK2 = molecular target: T26, STK32B/YANK2 (Homo sapiens, UniProt Q9NY57); experiment: HotSpot kinase assay; format: biochemical; conditions: 10µM
T26 construct: purchased Reaction Biology Corporation

DYRK1B = molecular target: T27, DYRK1B (Homo sapiens, UniProt Q9Y463); experiment: HotSpot kinase assay; format: biochemical; conditions: 10µM
T27 construct: purchased Reaction Biology Corporation

MLK3/MAP3K11 = molecular target: T28, MLK3/MAP3K11 (Homo sapiens, UniProt Q16584); experiment: HotSpot kinase assay; format: biochemical; conditions: 10µM
T28 construct: purchased Reaction Biology Corporation

MEK3 = molecular target: T29, MEK3 (Homo sapiens, UniProt P46734); experiment: HotSpot kinase assay; format: biochemical; conditions: 10µM
T29 construct: purchased Reaction Biology Corporation

MSSK1/STK23 = molecular target: T30, MSSK1/STK23 (Homo sapiens, UniProt Q9UPE1); experiment: HotSpot kinase assay; format: biochemical; conditions: 10µM
T30 construct: purchased Reaction Biology Corporation

DDR1 = molecular target: T31, DDR1 (Homo sapiens, UniProt Q08345); experiment: HotSpot kinase assay; format: biochemical; conditions: 10µM
T31 construct: purchased Reaction Biology Corporation

SNARK/NUAK2 = molecular target: T32, SNARK/NUAK2 (Homo sapiens, UniProt Q9H093); experiment: HotSpot kinase assay; format: biochemical; conditions: 10µM
T32 construct: purchased Reaction Biology Corporation

LYN B = molecular target: T33, LYN B (Homo sapiens, UniProt P07948); experiment: HotSpot kinase assay; format: biochemical; conditions: 10µM
T33 construct: purchased Reaction Biology Corporation

ERBB2/HER2 = molecular target: T34, ERBB2/HER2 (Homo sapiens, UniProt P04626); format: biochemical; conditions: 10µM
T34 construct: purchased Reaction Biology Corporation

EPHA8 = molecular target: T35, EPHA8 (Homo sapiens, UniProt P29322); experiment: HotSpot kinase assay; format: biochemical; conditions: 10µM
T35 construct: purchased Reaction Biology Corporation

PKN2/PRK2 = molecular target: T36, PKN2/PRK2 (Homo sapiens, UniProt Q16513); experiment: HotSpot kinase assay; format: biochemical; conditions: 10µM
T36 construct: purchased Reaction Biology Corporation

GRK7 = molecular target: T37, GRK7 (Homo sapiens, UniProt Q8WTQ7); experiment: HotSpot kinase assay; format: biochemical; conditions: 10µM
T37 construct: purchased Reaction Biology Corporation

JNK3 = molecular target: T38, JNK3 (Homo sapiens, UniProt P53779); experiment: HotSpot kinase assay; format: biochemical; conditions: 10µM
T38 construct: purchased Reaction Biology Corporation

LCK = molecular target: T39, LCK (Homo sapiens, UniProt P06239); experiment: HotSpot kinase assay; format: biochemical; conditions: 10µM
T39 construct: purchased Reaction Biology Corporation

c-Kit = molecular target: T40, c-Kit (Homo sapiens, UniProt P10721); experiment: HotSpot kinase assay; format: biochemical; conditions: 10µM
T40 construct: purchased Reaction Biology Corporation

ERK7/MAPK15 = molecular target: T41, ERK7/MAPK15 (Homo sapiens, UniProt Q8TD08); experiment: HotSpot kinase assay; format: biochemical; conditions: 10µM
T41 construct: purchased Reaction Biology Corporation

MEK5 = molecular target: T42, MEK5 (Homo sapiens, UniProt Q13163); experiment: HotSpot kinase assay; format: biochemical; conditions: 10µM
T42 construct: purchased Reaction Biology Corporation

Structure (SMILES): CO[C@@H]1[C@H](N(C)C(=O)CCC(=O)NCc2cn(CCCS(=O)(=O)O)nn2)C[C@H]2O[C@]1(C)n1c3ccccc3c3c4c(c5c6ccccc6n2c5c31)C(=O)NC4 [CIMSS]
- % Enzyme Activity (relative to DMSO controls) (BTK): 5.98%
- % Enzyme Activity (relative to DMSO controls) (HIPK1): 33.68%
- % Enzyme Activity (relative to DMSO controls) (PKN1/PRK1): 2.15%
- % Enzyme Activity (relative to DMSO controls) (MKK4): 97.17%
- % Enzyme Activity (relative to DMSO controls) (AMPK(A2/B1/G1)): 0.64%
- % Enzyme Activity (relative to DMSO controls) (JNK2): 41.78%
- % Enzyme Activity (relative to DMSO controls) (TGFBR2): 108.40%
- % Enzyme Activity (relative to DMSO controls) (MLK2/MAP3K10): 1.47%
- % Enzyme Activity (relative to DMSO controls) (CHK1): 4.46%
- % Enzyme Activity (relative to DMSO controls) (AMPK (A2/B1/G2)): 0.66% and 0.09%
- % Enzyme Activity (relative to DMSO controls) (BRAF): 131.61%
- % Enzyme Activity (relative to DMSO controls) (JAK2): 0.89%
- % Enzyme Activity (relative to DMSO controls) (PBK/TOPK): 67.76%
- remaining activity at 10 µM (CDK9/cyclin K): 11.4%
- % Enzyme Activity (relative to DMSO controls) (CDK4/cyclin D3): 84.60%
- % Enzyme Activity (relative to DMSO controls) (CDC7/DBF4): 3.26%
- % Enzyme Activity (relative to DMSO controls) (SGK3/SGKL): 58.53%
- % Enzyme Activity (relative to DMSO controls) (NEK7): 82.08%
- % Enzyme Activity (relative to DMSO controls) (PKCepsilon): 0.77%
- % Enzyme Activity (relative to DMSO controls) (CAMKK2): 1.81%
- % Enzyme Activity (relative to DMSO controls) (MLK4): 0.85%
- % Enzyme Activity (relative to DMSO controls) (DAPK2): 10.10%
- % Enzyme Activity (relative to DMSO controls) (DDR2): 1.45%
- % Enzyme Activity (relative to DMSO controls) (CAMK2d): 0.88%
- % Enzyme Activity (relative to DMSO controls) (CK1g2): 93.32%
- % Enzyme Activity (relative to DMSO controls) (CK2a2): 43.00%
- % Enzyme Activity (relative to DMSO controls) (STK32B/YANK2): 0.91%
- % Enzyme Activity (relative to DMSO controls) (DYRK1B): 0.35%
- % Enzyme Activity (relative to DMSO controls) (MLK3/MAP3K11): -0.81% and -1.50%
- % Enzyme Activity (relative to DMSO controls) (MEK3): 47.29%
- % Enzyme Activity (relative to DMSO controls) (MSSK1/STK23): 67.63%
- % Enzyme Activity (relative to DMSO controls) (DDR1): 0.67%
- % Enzyme Activity (relative to DMSO controls) (SNARK/NUAK2): 1.92%
- % Enzyme Activity (relative to DMSO controls) (LYN B): 2.48%
- % Enzyme Activity (relative to DMSO controls) (ERBB2/HER2): 34.05%
- % Enzyme Activity (relative to DMSO controls) (EPHA8): 69.23%
- % Enzyme Activity (relative to DMSO controls) (PKN2/PRK2): 6.60%
- % Enzyme Activity (relative to DMSO controls) (GRK7): 6.73%
- % Enzyme Activity (relative to DMSO controls) (JNK3): 23.39%
- % Enzyme Activity (relative to DMSO controls) (LCK): 2.99%
- % Enzyme Activity (relative to DMSO controls) (c-Kit): 0.28% and -0.14%
- % Enzyme Activity (relative to DMSO controls) (ERK7/MAPK15): 27.60%
- % Enzyme Activity (relative to DMSO controls) (MEK5): 40.06%
